The target of this experiment is KPC-2 (Klebsiella pneumoniae, UniProt Q9F663). Description: IC50, inhibition of cephalothin hydrolysis by crude extract.

Amino acid sequences for entries named in this document (tags omitted). Residues count along the entry.
UniProt Q9F663, 25-293 limits assumed: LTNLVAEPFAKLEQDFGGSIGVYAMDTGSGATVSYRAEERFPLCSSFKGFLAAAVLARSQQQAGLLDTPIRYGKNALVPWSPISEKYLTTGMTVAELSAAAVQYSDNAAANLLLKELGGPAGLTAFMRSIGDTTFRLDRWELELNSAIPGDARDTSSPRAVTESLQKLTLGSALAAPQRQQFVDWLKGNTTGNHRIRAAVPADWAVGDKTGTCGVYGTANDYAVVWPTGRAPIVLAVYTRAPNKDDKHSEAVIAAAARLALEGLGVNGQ

The source of these data is article PMC12147714 (FEMS Microbiology Letters, 2025).

Take `O=C(O)[C@@H](S)[C@@H](S)C(=O)O` [DMSA, meso-dimercaptosuccinic acid]: the IC50 was more than 1 mM (100 μM cephalothin, pH 7.0) and 6.93 mM (data not shown).

As a reminder, the IC50 is the concentration that inhibits the measured activity by half. The low end stands for higher potency, the high end for lower potency.
